PubChem BioAssay AID1224905 (ICCB-Longwood Screening Facility, Harvard Medical School, 2016)
Out of some 210,000 compounds screened, about 880 (0.42%) were called active.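 The calls were made as follows: active = replicate mean at 85% of control or lower with very high polarization wells dropped (limit read from the data); inactive = the rest.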 What follows is part of a selection rich in actives, with near analogues and random picks from the rest.

Sequences of proteins named here, by UniProt entry; tags and fusion partners are left off.
UniProt P08753, whole entry, looked up: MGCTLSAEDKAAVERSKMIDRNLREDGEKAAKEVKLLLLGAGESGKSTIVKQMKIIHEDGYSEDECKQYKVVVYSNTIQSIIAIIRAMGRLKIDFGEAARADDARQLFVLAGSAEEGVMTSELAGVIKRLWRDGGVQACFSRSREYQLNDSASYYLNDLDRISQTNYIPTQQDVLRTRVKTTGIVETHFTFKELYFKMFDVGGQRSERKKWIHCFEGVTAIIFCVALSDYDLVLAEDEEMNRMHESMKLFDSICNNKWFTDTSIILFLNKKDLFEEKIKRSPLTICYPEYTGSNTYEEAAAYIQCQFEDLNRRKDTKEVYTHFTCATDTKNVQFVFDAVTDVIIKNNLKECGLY

These molecules were tested against Guanine nucleotide-binding protein G(i) subunit alpha-3 (Rattus norvegicus) (UniProt P08753) (assay: disruptors of GIV-Galphai3 protein-protein interaction – biochemical, fluorescence polarization, FITC-GIV GBA peptide, rat Galphai3, primary screen (AID 1224905;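 also: lower values mean more displacement of the GIV peptide from Galpha-i3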)). Conditions: Galpha-i3/FITC-GIV peptide fluorescence polarization, 90 min; hits give low values; scaled: aluminum fluoride 0%, vehicle 100%.

SMILES	percent of control (FP)
COCCNC(=O)c1ccc(Cn2c(SCC(=O)NCc3ccccc3)nc3ccc(Br)cc3c2=O)cc1	97.2% (inactive)
CCOC(=O)c1ccc(-c2ccc(/C=C(\C#N)C(=O)Nc3ccc(C)cc3)o2)cc1	99.2% (inactive)
N#C/C(=C\c1ccc(-c2ccccc2)o1)C(=O)Nc1ccccc1	36.5% (active)
CCOC(=O)c1ccc(-c2ccc(/C=C(\C#N)C(=O)Nc3ccc(OCC)cc3)o2)cc1	102% (inactive)
CCNC(=O)N1CCCC(c2nc(C(C)C)cs2)C1 (configuration not stated)	105% (inactive)
O=C(CN1CCN(C(=O)c2cccc(Cl)c2)CC1)Nc1nnc(-c2ccccc2)s1	98.2% (inactive)
CCOc1ccc(NC(=O)Cn2c(SCC)nc3ccccc32)cc1	98.2% (inactive)
Cc1cc2nc3[nH]c4ccccc4c3nc2cc1C	109% (inactive)
Cc1cc2nc3c(=O)n(Cc4ccccc4)c(=O)[nH]c3nc2cc1N	72.2% (active)
O=c1[nH]c2c(c(=O)n1Cc1ccccc1)CCC2	110% (inactive)
Cc1sc(NC(=O)c2ccccc2)c(C(Nc2ccccn2)c2cccnc2)c1C (configuration not stated)	102% (inactive)
Fc1ccccc1CSc1nccn2nc(-c3ccc(Br)cc3)cc12	111% (inactive)
Cc1ccc(C2(c3ccc(C)cc3)CC2C(=O)Nc2cccc(C(F)(F)F)c2)cc1 (configuration not stated)	104% (inactive)
Cc1ccc(OCCn2cc(/C=C3/C(=O)Nc4cc(Cl)ccc43)c3ccccc32)cc1C	35.2% (active)
Cc1ccc(OCCn2cc(C(=O)c3ccccc3)c3ccccc32)cc1	99.6% (inactive)
COc1ccccc1OCCCn1cc(/C=C2/C(=N)N3C=CSC3=NC2=O)c2ccccc21	103% (inactive)
CCc1cc2c(NC3CCCCC3)ncnc2s1	117% (inactive)
O=c1sc2ccccc2c2nc[nH]c12	99.7% (inactive)
O=C(Cn1c2c(c(-c3ccccc3Cl)cc1=O)CCC2)NC1CCCCC1	108% (inactive)

SMILES	percent of control (FP)
CNC(=O)CSc1nnc2[nH]c(=O)cc(C)n12	108% (inactive)
Cc1cc(N2CCN(c3ccccc3)CC2)n2c(nc3ccccc32)c1C#N	99.6% (inactive)
N#Cc1c(N2CCCCCC2)ncc2cc3ccccc3nc12	-18.1% (active)
Cc1c(Cc2ccccc2)c(N2CCCCC2)n2c(nc3ccccc32)c1C#N	146% (inactive)
Cc1cc(C(=O)NCCN2CCOCC2)c2c(=O)n(C)c(=O)n(C)c2n1	105% (inactive)
CC(=O)N[C@H]1[C@H](Oc2ccc(C)cc2)O[C@H](COC(C)=O)[C@@H](OC(C)=O)[C@@H]1OC(C)=O	131% (inactive)
CCOC(=O)CSc1ncn[nH]1	102% (inactive)
CCn1nc(C)cc1-c1nnc(SCC(=O)c2ccc(C)cc2)o1	108% (inactive)
CCN(CC)c1ccc2cc(C(=O)O)c(=O)oc2c1	115% (inactive)
CCN(CC)c1ccc2cc(-c3csc(-c4nc(-c5cc6ccc(N(CC)CC)cc6oc5=O)cs4)n3)c(=O)oc2c1	109% (inactive)
CCN(CC)c1ccc2oc(=O)c(C)nc2c1	-40.7% (active)
Cc1c(C(=O)NCC(c2ccccc2)c2c[nH]c3ccccc23)oc2ccc(Cl)cc12 (configuration not stated)	105% (inactive)
N=C1S/C(=C\c2ccc(-c3ccccc3[N+](=O)[O-])o2)C(=O)N1c1ccc2c(c1)OCO2	114% (inactive)
O=C1N/C(=C/c2ccc(-c3ccc([N+](=O)[O-])cc3Br)o2)C(=O)N1Cc1ccc(Cl)cc1	146% (inactive)
O=C1NC(=O)/C(=C/c2ccc(-c3ccc([N+](=O)[O-])cc3Br)o2)S1	62.8% (active)
O=C(NCc1ccco1)c1cc2nc(-c3ccc(Cl)c(Cl)c3)cc(C(F)(F)F)n2n1	101% (inactive)
Cn1c(=O)n(C)c2cc(N3CCOCC3)c(NS(=O)(=O)c3ccc4c(c3)CCCC4)cc21	103% (inactive)
O=C(O)c1cc(NS(=O)(=O)c2ccc3c(c2)CCCC3)cnc1N1CCOCC1	80.8% (active)
O=C(O)c1cc(NS(=O)(=O)c2cc(F)ccc2F)cnc1N1CCC(N2CCCCC2)CC1	93.7% (inactive)

SMILES	percent of control (FP)
O=C(CSc1nnc(C2COc3ccccc3O2)n1-c1ccccc1)c1cccc([N+](=O)[O-])c1 (configuration not stated)	99.2% (inactive)
COCCNC(=O)Cn1cc(/C=C2\C(=O)NC(=O)N(C3CCCCC3)C2=O)c2ccccc21	-38.3% (active)
Cc1cc(Br)ccc1N1C(=O)NC(=O)/C(=C/c2cn(CC(=O)N3CCOCC3)c3ccccc23)C1=O	103% (inactive)
COc1ccccc1N1C(=O)NC(=O)/C(=C/c2cn(C(C)=O)c3ccccc23)C1=O	118% (inactive)
NC(=O)c1nsc2c(=O)n(CC(=O)NCc3ccco3)cnc12	95.4% (inactive)
CCOC(=O)c1c(NC(=S)NC(=O)c2ccccc2)sc2c1CC(C)(CC)OC2 (configuration not stated)	107% (inactive)
Cc1cc(C)c2[nH]c(=O)c(NC(N)=S)nc2c1	109% (inactive)
Cc1c(C(=O)NCC2COc3ccccc3O2)sc2ncnc(N3CCCCC3C)c12 (configuration not stated)	103% (inactive)
COc1ccccc1N(Cc1nc2nc(C)cc(C)n2n1)C(=O)C(C)(C)C	105% (inactive)
COc1cc(-c2noc(-c3cc(-c4cc(C)ccc4C)n[nH]3)n2)ccc1OC(C)C	109% (inactive)
O=C(NCc1ccc2c(c1)OCO2)C1CCCN(S(=O)(=O)N2CCOCC2)C1 (configuration not stated)	105% (inactive)
O=C(O)CCC(C(=O)O)N1C(=O)/C(=C\c2ccco2)SC1=S (configuration not stated)	79.9% (active)
CN1CCN(NC(=O)CCN2C(=O)/C(=C\c3ccco3)SC2=S)CC1	106% (inactive)
CN1C(=O)/C(=C/c2ccco2)SC1=Nc1cccc(C(=O)O)c1	103% (inactive)
COc1ccc(S(=O)(=O)N2CCC(NC(=O)NCc3ccc(C)cc3)CC2)cc1	98.6% (inactive)
O=C(NCCCN1CCC(N2CCCCC2)CC1)c1nnc(C(=O)Nc2ccccc2)s1	101% (inactive)
O=C(CCc1ccccc1)N1CCN(C(=O)c2cc3cc(Br)ccc3[nH]2)CC1	108% (inactive)
CN1C=C/C(=C\C=C2/C=Nc3ccccc32)c2ccccc21	-76.3% (active)
CCCCN(CCCNC(=O)Nc1cn(CC(C)C)c(=O)c2ccccc12)Cc1ccccc1	98.7% (inactive)
